The values below come from US7608611B2, “Hsp90 inhibitors, methods of making and uses therefor” (The Regents of the University of Colorado, priority 2005, dated 2009).

SMILES strings stand for the structures.

The experiment concerns the target human Hsp90 (Homo sapiens, UniProt P07900). Particulars: 17-AAG, 12 hr.

`C=CCNC1=C2C[C@@H](C)C[C@H](OC)[C@H](O)[C@@H](C)/C=C(\C)[C@H](OC(N)=O)[C@@H](OC)/C=C\C=C(/C)C(=O)NC(=CC1=O)C2=O` [17-AAG, 17-demethoxy-17-(2-propenylamino)-geldanamycin]: the “inhibition of human Hsp90 ATPase activity with inclusion of NQO1” value (NADH and rhNQO1) was “Inhibition was significantly increased”. In addition, where the note is “NADH”, the “inhibition of human Hsp90 ATPase activity in the absence of NQO1” value is recorded as “some inhibition of Hsp90 ATPase activity”.
